This is an account of results in patent US20250128187A1.

Chains of the proteins cited; added tags and fusions are not shown. Residues count along the entry.
UniProt P22629, 37-163 limits assumed: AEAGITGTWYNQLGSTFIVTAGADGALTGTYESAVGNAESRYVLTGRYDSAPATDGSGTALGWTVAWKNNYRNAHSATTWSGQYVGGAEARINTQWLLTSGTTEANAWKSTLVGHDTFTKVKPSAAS

The assay addresses streptavidin immobilized on membrane (streptavidin modified membrane prepared according to FIG. 10) (Streptomyces avidinii) (UniProt P22629). As to the kind of experiment: depletion from solution; 0.0055 mL streptavidin membrane incubated in 0.4 mL of 1 mg/mL biotin-conjugate for 24 hours.

For “biotin-Protein A (from UniProt P38507 37-477)”, the Amount Immobilized (mg biotin-conjugate/mL membrane) (mg biotin-conjugate/mL membrane) worked out at 9.7.
